# Experiments:
# Format in all cases: functional
# [1] = tested on: Rattus norvegicus; test: (§1) Antiosteoporotic activity in Sprague-Dawley rat model of OVX-induced bone loss assessed as protection against microarchitectural deterioration by measuring trabecular bone pattern factor at 1 mg/kg, po via gavage for 12 weeks by microcomputed tomographic analysis (reference value: 10.81 +/- 0.68 /millimeter)
# [2] = tested on: Rattus norvegicus; test: (§2) Antiosteoporotic activity in Sprague-Dawley rat model of OVX-induced bone loss assessed as protection against microarchitectural deterioration by measuring ratio of bone volume/trabecular volume at 5 mg/kg, po via gavage for 12 weeks by microcomputed tomographic analysis (reference value: 4.68 +/- 0.58%)
# [3] = tested on: Rattus norvegicus; test: Antiosteoporotic activity in Sprague-Dawley rat model of OVX-induced bone loss assessed as protection against microarchitectural deterioration by measuring structural model index at 5 mg/kg, po via gavage for 12 weeks by microcomputed tomographic analysis (reference value: 2.07 +/- 0.06)
# [4] = tested on: Rattus norvegicus; test: as §2, with “at 1” for “at 5”
# [5] = tested on: Rattus norvegicus; test: as §1, with “at 5” for “at 1”
# [6] = tested on: Rattus norvegicus; test: Antiosteoporotic activity in Sprague-Dawley rat model of OVX-induced bone loss assessed as protection against microarchitectural deterioration by measuring structural model index at 1 mg/kg, po via gavage for 12 weeks by microcomputed tomographic analysis (reference value: 2.07 +/- 0.06)
compound,measurement,setting,value
CCOC(=O)c1cc2c([nH]c3ccccc32)c(C(c2nnnn2C(C)(C)C)N2CCN(C)CC2)n1 (stereo unspecified),Activity,[1],5.67 /millimeter
same,Ratio,[2],10.09%
same,Activity_index,[3],1.61
same,Ratio,[4],10.55%
same,Activity,[5],5.45 /millimeter
same,Activity_index,[6],1.66

# From ChEMBL document CHEMBL4325822, “Discovery of a tetrazolyl β-carboline with in vitro and in vivo osteoprotective activity under estrogen-deficient conditions” (Medchemcomm, 2018)
